EP4831181A1, “SALT FORM OF TAAR1 LIGAND AGONIST, CRYSTAL FORM, PREPARATION METHOD, AND USE” (dated 2026)

Assays:
[1] = Pharmacokinetic study in rats (intravenous and intragastric); conditions: SD rats; for AUClasl: plasma
Description: Rats: SD rats weighing 200-250 g Reagents: acetonitrile, MERCK; methanol, MERCK; formic acid, Sigma; tolbutamide, Sigma. Instruments: water purification equipment, Millipore; electronic balance, METTLER TOLEDO; high-speed benchtop centrifuge, Thermo; water-bath thermostatic shaker, Shanghai Yiheng Technical Co., Ltd.; vortex shaker, Thermo; liquid chromatography-mass spectrometry, AB SCIEX. Method: SD rats were dosed intravenously (IV) and intragastrically (IG), with 3 SD rats in each group. The compound of Formula I was administered, with DMSO and Tween 80 as vehicles. Administration doses: 2 mg/kg for intravenous administration and 5 mg/kg for intragastric administration. Whole blood samples were collected at 0, 5 min (intravenous), 15 min, 30 min, 1 h, 2 h, 4 h, 6 h, 8 h, 12 h, and 24 h, respectively, placed into heparinized EP tubes, and centrifuged at 13,500 rpm for 10 min to separate plasma. After pretreatment, the plasma samples were analyzed by LC-MS/MS to determine the concentration of the test compound in the plasma samples. Pharmacokinetic parameters of the compound of Formula I after intravenous and intragastric administration to SD rats

[2] = Solid-state stability study (XRPD and HPLC); conditions: for Purity: HPLC, initial purity 99.95%
Description: A stability study of the Crystal Form A of the maleate salt of the compound of Formula I was conducted under high temperature (60 °C), high humidity (25 °C/92.5% RH), light exposure (25 °C/4500 Lux), and accelerated (40 °C/75% RH) conditions. Samples were taken for XRPD characterization and HPLC analysis at 7 and 15 days, respectively. […] Table 15. The results of a stability study of the Crystal Form A of the maleate salt of the compound of Formula I

[3] = Dynamic vapor sorption (DVS)
Description: Dynamic vapor sorption analysis was performed on a DVS Intrinsic Plus instrument (SMS, UK). The test employed a gradient mode. The humidity was changed from 0% to 95% and back to 0%. The humidity change for each gradient was 10% in the range of 0% to 90%. The gradient endpoint was judged using dm/dt and was defined as a dm/dt of less than 0.002% lasting for 10 min, or each gradient lasting for a maximum of 180 min. After the test was completed, the sample was analyzed by XRPD to determine whether the solid form had changed.
About 1 g of the compound of Formula I was weighed out and added to a reaction flask, and 10 mL of isopropanol was added. After complete dissolution, 1 equivalent of maleic acid was added. The mixture was left to react at room temperature, and crystallization was monitored in real time. After a solid precipitated, the mixture was left to react for 30 min with the temperature maintained at 25 °C, then heated to 50 °C and stirred for 2 h with the temperature maintained, and then cooled to 25 °C and stirred overnight. The reaction solution was filtered, and the filter cake was washed and dried to give the Crystal Form A of the maleate salt of the compound of Formula I (1.44 g, yield: 90.1%, chemical purity: 99.86%). […] According to the above characterization results, it can be seen that the Crystal Form A of the maleate salt was an anhydrous crystal form. When the amount of maleic acid was 0.5-1.5 equivalents, the Crystal Form A of the maleate salt could be obtained, with a molar ratio of maleic acid to the compound of Formula I of about 1:1. Table 1. XRPD pattern analysis data for the Crystal Form A of the maleate salt of the compound of Formula I

[4] = Accelerated 40 °C/75% RH, 7 days
[5] = Accelerated 40 °C/75% RH, 15 days
[6] = High humidity 25 °C/92.5% RH, 7 days
[7] = High humidity 25 °C/92.5% RH, 15 days
[8] = High temperature 60 °C, 15 days
[9] = Light exposure 25 °C/4500 Lux, 7 days
[10] = Light exposure 25 °C/4500 Lux, 15 days

SMILES: c1cc2c(s1)[C@@H]1CNCCN1CC2
- AUClasl ([1]; IG 5mg/kg): 9.945 ± 1.213 µM·h
- Cl_obs ([1]; IV 2mg/kg): 28.8 ± 3.25 mL/min/kg
- Vss_obs ([1]; IV 2mg/kg): 2.91 ± 0.68 L/kg
- AUClasl ([1]; IV 2mg/kg): 5.971 ± 0.642 µM·h
- XRPD result [2, 4]: Crystal form A
- Purity [2, 4]: 99.94%
- XRPD result [2, 5]: Crystal form A
- Purity [2, 5]: 99.91%
- XRPD result [2, 6]: Crystal form A
- Purity [2, 6]: 99.93%
- XRPD result [2, 7]: Crystal form A
- Purity [2, 7]: 99.90%
- XRPD result ([2]; High temperature 60 °C, 7 days): Crystal form A
- Purity ([2]; High temperature 60 °C, 7 days): 99.93%
- XRPD result [2, 8]: Crystal form A
- Purity [2, 8]: 99.89%
- XRPD result [2, 9]: Crystal form A, a slight yellowing of the sample
- Purity [2, 9]: 99.85%
- XRPD result [2, 10]: Crystal form A, a slight yellowing of the sample
- Purity [2, 10]: 99.79%
- hygroscopicity ([3]; DVS, 25 °C): nearly no hygroscopicity
- desorption weight loss ([3]; DVS, 25 °C, 0% RH): about 0.10%
- adsorption weight increase ([3]; DVS, 25 °C, 80% RH): about 0.03%
- desorption weight increase ([3]; DVS, 25 °C, 80% RH): 0.03%
- adsorption weight increase ([3]; DVS, 25 °C, 95% RH): about 0.18%
- crystal form (XRPD) before and after DVS testing ([3]; XRPD before and after DVS): did not change
